From article PMC6874530, “Structural analysis identifies an escape route from the adverse lipogenic effects of liver X receptor ligands” (Communications Biology, 2019)

Protein sequences, listed by entry. Tags and fused reporters are not part of them. Residues count along the entry.
UniProt Q13133, 200-447 limits assumed: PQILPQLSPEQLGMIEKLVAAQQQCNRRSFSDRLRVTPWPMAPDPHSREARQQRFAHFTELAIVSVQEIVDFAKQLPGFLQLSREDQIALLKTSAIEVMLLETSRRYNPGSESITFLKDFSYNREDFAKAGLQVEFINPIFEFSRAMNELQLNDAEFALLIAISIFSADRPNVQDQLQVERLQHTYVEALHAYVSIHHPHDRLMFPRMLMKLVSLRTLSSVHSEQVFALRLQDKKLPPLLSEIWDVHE
UniProt Q13133, 209-447 limits assumed: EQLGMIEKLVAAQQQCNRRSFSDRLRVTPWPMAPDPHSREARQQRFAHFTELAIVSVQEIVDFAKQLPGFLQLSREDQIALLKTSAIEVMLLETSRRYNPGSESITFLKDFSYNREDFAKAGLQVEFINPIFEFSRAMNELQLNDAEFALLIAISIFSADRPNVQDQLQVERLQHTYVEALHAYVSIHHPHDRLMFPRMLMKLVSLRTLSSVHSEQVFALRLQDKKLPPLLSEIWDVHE
UniProt P55055, 215-460 limits assumed: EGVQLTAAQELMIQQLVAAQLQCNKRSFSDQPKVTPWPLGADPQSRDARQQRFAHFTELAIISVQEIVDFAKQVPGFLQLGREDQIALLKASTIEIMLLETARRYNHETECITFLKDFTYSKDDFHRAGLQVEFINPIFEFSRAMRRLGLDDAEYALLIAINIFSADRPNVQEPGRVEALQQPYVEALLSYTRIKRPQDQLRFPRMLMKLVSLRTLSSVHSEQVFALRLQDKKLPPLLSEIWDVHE
UniProt P55055, 222-460 limits assumed: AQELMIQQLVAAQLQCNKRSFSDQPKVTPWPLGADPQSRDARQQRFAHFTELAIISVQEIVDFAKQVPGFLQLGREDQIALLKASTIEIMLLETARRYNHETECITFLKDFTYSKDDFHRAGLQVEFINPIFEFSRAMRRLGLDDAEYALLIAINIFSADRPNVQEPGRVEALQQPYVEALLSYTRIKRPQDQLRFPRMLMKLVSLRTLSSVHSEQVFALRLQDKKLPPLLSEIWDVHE

What was measured:
[1] = target: T1, LXRα LBD (Homo sapiens, UniProt Q13133)
[2] = target: LXRβ (Homo sapiens, UniProt P55055); experiment: Gal4 one hybrid reporter gene (transactivation) assay in U2OS cells, LXRβ; format: cell-based; settings: Gal4-LXRβ LBD, value (SD, n)
[3] = tested on: Abca1 mRNA in intestine; experiment: intestinal Abca1 mRNA induction in C57BL/6 mice (Emax model)
[4] = target: T1, LXRα LBD; experiment: differential HDX-MS of LXRα LBD (apo vs ligand-bound); settings: after 600 s of deuterium exchange
[5] = target: LXRβ LBD (Homo sapiens, UniProt P55055)
[6] = target: LXRα (Homo sapiens, UniProt Q13133); experiment: Gal4 one hybrid reporter gene (transactivation) assay in U2OS cells, LXRα; format: cell-based; settings: Gal4-LXRα LBD, value (SD, n)

CC(C)(C)N1C(=O)C(Cc2ccccc2)=C(NCCc2ccc(S(N)(=O)=O)cc2)C1=O
Ki [1]: 575 nM | LXRβ transactivation pEC50 [2]: 6.55 (0.11, n = 4) | class of intestinal Abca1 induction [3]: low ABCA1 inducers | Abca1 mRNA induction in intestine Attributed class ([3]; mouse, in vivo): Low ABCA1 (compounds AZ5, AZ8, AZ9, and LXR-623 with weaker potencies were assigned to the second class (low ABCA1 inducers)) | Abca1 mRNA induction in intestine ED50 ([3]; oral gavage daily for 4 days, C57BL/6 mice, (% RSE)): 32.2 (11) µmol kg^−1 | protection of LXRα H3 from deuterium exchange [4]: no effect | Ki [5]: 81.3 nM | LXRα transactivation pEC50 [6]: 6.33 (0.14, n = 3)
